# According to PubChem BioAssay AID504913 (The Scripps Research Institute Molecular Screening Center, 2011):
# The entries are a selection whose mix differs from that of the whole data set. Calls of active or inactive are those of the source. No stated cut-off is given here; in the data, active means activation above about 18%; inactive means the rest.
# Assay: OPRM1-OPRD1 heterodimerization promoters, counter-screen for HTR5A agonist project, cell-based, luminescence (AID 504913)
# Details: U2OS counter-screen cells, complementation luminescence, 3 h; at 9.3 µM; stronger effect = higher value
smiles,measurement,value
Cc1ccc(NP(C)(=O)Oc2ccccc2)c(C)c1 (stereo unspecified),activation,inactive: 1.49%
